The assay deals with Adenosine receptor A1 (Rattus norvegicus, UniProt P25099).

Protein sequences, listed by entry. Tags and fused reporters are not part of them.
UniProt P25099, whole entry: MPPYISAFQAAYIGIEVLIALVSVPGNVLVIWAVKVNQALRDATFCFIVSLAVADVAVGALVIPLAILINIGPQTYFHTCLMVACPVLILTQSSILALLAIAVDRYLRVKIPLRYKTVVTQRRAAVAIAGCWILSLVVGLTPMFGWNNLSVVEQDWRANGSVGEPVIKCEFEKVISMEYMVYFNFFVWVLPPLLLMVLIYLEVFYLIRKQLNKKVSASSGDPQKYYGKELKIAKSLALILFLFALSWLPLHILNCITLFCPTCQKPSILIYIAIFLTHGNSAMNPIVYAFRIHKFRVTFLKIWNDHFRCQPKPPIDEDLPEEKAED

The results in this text go back to ChEMBL document CHEMBL1128285, “Search for new purine- and ribose-modified adenosine analogues as selective agonists and antagonists at adenosine receptors” (J Med Chem, 1995).

Each structure is given as a SMILES string.

What is called Ki is a dissociation constant, usually derived from enzyme kinetics or from competition with a known ligand. A low value points to a stronger hold on the target. As for `Nc1nccc2c1ncn2[C@@H]1O[C@H](CO)[C@@H](O)[C@H]1O`, the Ki was 21.5 µM.
